# Reference: PubChem BioAssay AID624415 (National Center for Advancing Translational Sciences (NCATS), 2012)
# Amino acid sequences for entries named in this document (tags omitted).
# UniProt Q9GZU1, whole entry: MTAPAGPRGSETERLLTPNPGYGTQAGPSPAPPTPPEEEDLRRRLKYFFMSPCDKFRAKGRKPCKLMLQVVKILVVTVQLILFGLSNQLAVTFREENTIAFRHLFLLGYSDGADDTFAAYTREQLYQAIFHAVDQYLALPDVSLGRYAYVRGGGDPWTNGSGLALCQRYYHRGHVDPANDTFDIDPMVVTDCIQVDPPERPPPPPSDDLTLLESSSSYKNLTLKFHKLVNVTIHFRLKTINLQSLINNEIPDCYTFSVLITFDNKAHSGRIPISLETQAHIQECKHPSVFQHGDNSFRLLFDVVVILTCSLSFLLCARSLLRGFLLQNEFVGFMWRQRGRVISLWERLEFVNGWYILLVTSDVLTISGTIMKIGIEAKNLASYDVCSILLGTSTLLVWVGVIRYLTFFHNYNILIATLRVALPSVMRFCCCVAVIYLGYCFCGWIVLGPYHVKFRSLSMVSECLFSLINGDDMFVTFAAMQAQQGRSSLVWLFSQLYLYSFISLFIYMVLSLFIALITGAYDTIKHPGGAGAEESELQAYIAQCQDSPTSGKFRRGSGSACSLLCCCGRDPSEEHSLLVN
# This is a selection; strong and weak results do not stand in their true shares. Active and inactive are the calls of the source. Rule as the data show it: active = activity change below about -50%; inconclusive = between about -30% and that limit; inactive = weaker than that.
# Biological target: Mucolipin-1 (Homo sapiens) (UniProt Q9GZU1)
# Assay: qHTS for Inhibitors of the Human Mucolipin Transient Receptor Potential 1 (TRPML1);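 also: stimulus is agonist 54-4 at its EC80 concentration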
# Details: TRPML1-inducible cells, Ca2+ dye fluorescence, FDSS; active compounds read low; inhibition of EC80 agonist-evoked calcium signal
# Text: Mutations of human Mucolipin transient receptor potential 1 (TRPML1) cause type IV mucolipidosis (ML4), a devastating neurodegenerative disease in young children. […] Currently, there is no treatment for ML4. […] Under physiological conditions, TRPMLs regulate membrane trafficking by transducing information about PI(3,5)P2 levels into changes in juxtaorganellar Ca2+, thereby triggering membrane fusion/fission events in the late endocytic pathways (endolysosomal trafficking). In addition, TRPML1 mediates release of Fe2+ from late endosomes and lysosomes, which is essential for cellular iron metabolism. Thus, impaired ion (Ca2+ and Fe2+) homeostasis underlies lysosomal dysfunction and ML4 phenotypes. In ML4 cells, the problem is twofold. First, defective Ca2+-dependent membrane trafficking due to TRPML1-deficiency causes accumulation of lipids and other bio-materials in the lysosome. […]
# TRPML1-DL cells are dissociated from flasks, counted and, brought up to a density of 500,000 cells per mL of media containing a 1X Tet inducer. […] The assay plate is read on the FDSS using the following protocol: 10 second baseline read, 23 nL of compounds and controls are added using 1536 pintool, agonist read for 110 seconds, 1 uL EC80 addition (4 uM final 54-4 diluted in media), antagonist read for 110 seconds.
# % is scaled to controls: 0 for no effect and ±100 for the full control effect.
row,SMILES,"activity change, negative = inhibition"
1,CCC(=O)N(c1ccccc1)C1(COC)CCN(CCc2cccs2)CC1,inactive: 20.6%
2,CCC(=O)N(c1ccccc1)C1(COC)CCN(CCn2nnn(CC)c2=O)CC1,inactive: -5.71%
